A short description of the data set: Plasma stability (human plasma). As for the experimental part:
The pooled frozen plasma was thawed in a water bath at 37° C. prior to experiment. Plasma was centrifuged at 4000 rpm for 5 min and the clots were removed if any. The pH will be adjusted to 7.4±0.1 if required.
Preparation of test compounds and positive control (propantheline bromide): 1 mM intermediate solution was prepared by diluting 10 μL of the stock solution with 90 μL MeOH; 1 mM intermediate of positive control Propantheline was prepared by diluting 10 μL of the stock solution with 90 μL ultrapure water. 100 μM dosing solution was prepared by diluting 20 μL of the intermediate solution (1 mM) with 180 μL MeOH. 98 μL of blank plasma was spiked with 2 μL of dosing solution (100 μM) to achieve 2 μM of the final concentration in duplicate and samples were incubated at 37° C. in a water bath. […] Centrifuged sample plates at 4,000 rpm for 10 min. An aliquot of supernatant (100 μL) was transferred from each well to another plates.

One molecule from patent US11793827B2, “Adenosine derivative and pharmaceutical composition comprising the same” (Brii Biosciences, Inc., priority 2021, dated 2023) can be followed below.

As for `C#C[C@]1(COC(=O)OCC23CC4CC(CC(C4)C2)C3)O[C@@H](n2cnc3c(N)nc(F)nc32)C[C@@H]1OC(=O)C(C)C` [Compound 20, ((2R,3S,5R)-2-(((((1-adamantyl)methoxy)carbonyl)oxy)methyl)-5-(6-amino-2-fluoro-9H-purin-9-yl)-2-ethynyltetrahydrofuran-3-yl) isobutyrate], the “Formation of EFdA at 30 min” value is “No”.
